Test results as given in patent US9434697B2, “Pyrimidine FGFR4 inhibitors” (priority 2013, dated 2016).

How the values were obtained:
Parameters in all cases: species or system nude mice
HEP3B tumor xenografts = assay: In vivo efficacy, HEP3B hepatocellular carcinoma xenograft; details: among the three models
JHH7 tumor xenografts = assay: In vivo efficacy, JHH7 hepatocellular carcinoma xenograft; details: JHH7, among the three models
HUH7 tumor xenografts = assay: In vivo efficacy, HUH7 hepatocellular carcinoma xenograft; details: HUH7, among the three models

C=CC(=O)Nc1cc(N2CCN(CC)CC2)ccc1Nc1cc(N(C)C(=O)Nc2c(Cl)c(OC)cc(OC)c2Cl)ncn1 [Example 108, N-(2-(6-(3-(2,6-Dichloro-3,5-dimethoxyphenyl)-1-methylureido)pyrimidin-4-ylamino)-5-(4-ethylpiperazin-1-yl)phenyl)acrylamide]
sensitivity of the xenograft model to the compound (HEP3B tumor xenografts): most sensitive | sensitivity of the xenograft model to the compound (JHH7 tumor xenografts): least sensitive | sensitivity of the xenograft model to the compound (HUH7 tumor xenografts): intermediate sensitivity
